Values of other authors as cited in publication PMC4079055 (The New England journal of medicine, 2014).

Tested on: advanced, ALK-rearranged NSCLC
Conditions: across multiple studies; cited from earlier work

## C[C@@H](Oc1cc(-c2cnn(C3CCNCC3)c2)cnc1N)c1c(Cl)ccc(F)c1Cl [crizotinib]
  Response rates: approximately 60%
